Laboratory results taken from PubChem BioAssay AID2280 (The Scripps Research Institute Molecular Screening Center, 2010).
Only a part is listed here, and it is no random draw. Activity calls are given as the source filed them.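 How the source made its calls: active means percent inhibition above a per-plate cutoff, the plate mean of test compounds plus 3 SD (cut at about 30% in these data); inactive means the rest.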

Sequences of proteins named here, by UniProt entry; tags and fusion partners are left off.
UniProt Q17339, whole entry: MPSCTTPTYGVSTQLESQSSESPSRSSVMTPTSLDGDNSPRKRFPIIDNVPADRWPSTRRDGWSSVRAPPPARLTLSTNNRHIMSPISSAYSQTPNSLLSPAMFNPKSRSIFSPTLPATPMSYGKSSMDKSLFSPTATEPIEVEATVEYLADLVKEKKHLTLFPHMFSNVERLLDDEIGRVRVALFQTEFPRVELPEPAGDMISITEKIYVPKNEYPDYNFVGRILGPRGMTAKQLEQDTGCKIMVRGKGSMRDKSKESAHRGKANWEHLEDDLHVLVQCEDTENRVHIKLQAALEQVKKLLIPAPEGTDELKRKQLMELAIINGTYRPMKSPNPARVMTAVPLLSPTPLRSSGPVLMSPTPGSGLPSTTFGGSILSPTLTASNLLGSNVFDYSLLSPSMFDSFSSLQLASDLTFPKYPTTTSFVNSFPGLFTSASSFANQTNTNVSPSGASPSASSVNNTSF

What follows are compounds tested against Female germline-specific tumor suppressor gld-1 (Caenorhabditis elegans) (UniProt Q17339) (assay: small molecules blocking C. elegans GLD-1 RNA recognition – biochemical, fluorescence polarization, primary screen (AID 2280;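 further: 0% = DMSO wells with GLD-1 and probe and 100% = wells lacking GLD-1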)). Settings: purified GLD-1 + fluorescein TGE RNA, at 5.96 µM, active compounds read high.

For O=C(NCC1(N2CCCCC2)CCCCC1)c1ccc(=O)[nH]c1, which inhibition is on record?
The inhibition was inactive: 4.78%.

How did the inhibition turn out when O=C(NCC1(N2CCCCC2)CCCCC1)c1cccs1 was run?
Its inhibition is inactive: -0.54%.

How did the inhibition turn out when COc1ccc(C(=O)NCC2(N3CCCCC3)CCCCC2)cc1 was run?
The inhibition was inactive: -3.84%.

COc1ccc(C(=O)NCC2(N3CCCCC3)CCCCC2)c(OC)c1OC was tested. Which inhibition did it give?
The inhibition was inactive: 3.89%.

CC(C)(C)OC(=O)N1CCC(N(C(=O)c2ccccc2)c2ccc(F)cc2)CC1 was tested. Which inhibition did it give?
The inhibition was inactive: -2.22%.

With CSc1ccccc1C(=O)NCC1(N2CCCCC2)CCCCC1 as the compound, how does the inhibition read?
The inhibition was inactive: -8.64%.

With O=C(NCC1(N2CCOCC2)CCCCC1)c1cc2ccccc2o1 as the compound, how does the inhibition read?
Its inhibition is inactive: 6.6%.

How did the inhibition turn out when O=C(NCC1(N2CCCCC2)CCCCC1)c1ccc(Cl)nc1 was run?
The inhibition was inactive: 2.84%.

How did the inhibition turn out when Cc1cc(C)cc(N(C(=O)c2ccccc2)C2CCN(C(=O)OC(C)(C)C)CC2)c1 was run?
The inhibition was inactive: 2.41%.

With CCOC(=O)N1CCC(Nc2ccc(OC)cc2)CC1 as the compound, how does the inhibition read?
Its inhibition is inactive: 1.58%.

How did the inhibition turn out when N#CC1(Nc2ccccc2)CCN(Cc2ccccc2)CC1 was run?
Its inhibition is inactive: -2.71%.

With O=C(NCC1(N2CCCCC2)CCCCC1)c1ccc(Cl)s1 as the compound, how does the inhibition read?
Its inhibition is inactive: 1.19%.

Which inhibition does the source give for O=C(OC1CN2CCC1CC2)C1c2ccccc2Oc2ccccc21 (stereo not drawn) here?
The inhibition was inactive: -2.04%.

How did the inhibition turn out when COc1ccc(Cl)cc1C(=O)NCC1(N2CCOCC2)CCCCC1 was run?
Its inhibition is inactive: 4.34%.

With CCOc1ccc(C)cc1CN(CCCl)CCCl as the compound, how does the inhibition read?
Its inhibition is inactive: -6.02%.

With O=C(NCC1(N2CCCCC2)CCCCC1)c1ccc(F)cc1 as the compound, how does the inhibition read?
Its inhibition is inactive: -1.93%.

With COc1ccc(NC2CCN(CCc3ccccc3)CC2)c(OC)c1 as the compound, how does the inhibition read?
Its inhibition is inactive: 1.18%.

With CCOC(=O)N1CCC(Nc2cccc(C)c2)CC1 as the compound, how does the inhibition read?
The inhibition was inactive: 6.41%.

For Cc1ccc(OCC(C)C)c(CN(CCCl)CCCl)c1, which inhibition is on record?
Its inhibition is inactive: -0.24%.

With O=C(NCC1(N2CCCCC2)CCCCC1)c1ccc(OC(F)F)cc1 as the compound, how does the inhibition read?
The inhibition was inactive: -5.25%.

Which inhibition does the source give for O=C(NCC1(N2CCCCC2)CCCCC1)c1cccc([N+](=O)[O-])c1 here?
The inhibition was inactive: 0.75%.

With CCN1CCC(Nc2ccc(Cl)cc2)CC1 as the compound, how does the inhibition read?
The inhibition was inactive: 2.81%.

With N#CC1(Nc2ccccc2)CCN(CCc2ccccc2)CC1 as the compound, how does the inhibition read?
Its inhibition is inactive: 6.09%.

O=C(NCC1(N2CCCCC2)CCCCC1)c1cccc(C(F)(F)F)c1 was tested. Which inhibition did it give?
The inhibition was inactive: 1.97%.

Which inhibition does the source give for CN1CCN(CCOC(=O)C(O)(c2ccccc2)c2ccccc2)CC1 here?
Its inhibition is inactive: 0.5%.

Which inhibition does the source give for COc1ccc(NC2CCN(C(=O)OC(C)(C)C)CC2)cc1 here?
Its inhibition is inactive: 3.77%.

Which inhibition does the source give for COc1cc(C(=O)NCC2(N3CCCCC3)CCCCC2)ccc1OC(F)F here?
Its inhibition is inactive: 1.79%.

With O=C(NCC1(N2CCOCC2)CCCCC1)c1cc(=O)[nH]c2ccccc12 as the compound, how does the inhibition read?
Its inhibition is inactive: -3.69%.

Which inhibition does the source give for COc1ccc(CN(CCCl)CCCl)cc1Cl here?
The inhibition was inactive: -0.25%.

CN(C)c1cccc(C(=O)NCC2(N3CCCCC3)CCCCC2)c1 was tested. Which inhibition did it give?
The inhibition was inactive: -5.04%.

With CC(C)c1ccc(NC2CCN(C(=O)OC(C)(C)C)CC2)cc1 as the compound, how does the inhibition read?
The inhibition was inactive: 5.73%.

How did the inhibition turn out when COc1cc(OC)c(C(=O)NCC2(N(C)C)CCCCC2)cc1OC was run?
The inhibition was inactive: 1.88%.

How did the inhibition turn out when O=C(NCC1(N2CCOCC2)CCCCC1)c1cc(F)c(F)cc1Cl was run?
The inhibition was inactive: 7.18%.

For CN1CCC(Nc2cccc(F)c2)CC1, which inhibition is on record?
Its inhibition is inactive: -3.74%.

O=C(NCC1(N2CCCCC2)CCCCC1)c1cncc(Br)c1 was tested. Which inhibition did it give?
Its inhibition is inactive: 2.97%.

With O=C(NCC1(N2CCOCC2)CCCCC1)c1cc(Br)ccc1Cl as the compound, how does the inhibition read?
Its inhibition is inactive: -6.65%.

With COc1cc(C(=O)NCC2(N3CCOCC3)CCCCC2)cc(OC)c1C as the compound, how does the inhibition read?
Its inhibition is inactive: 3.49%.

For COc1ccc(C(=O)NCC2(N3CCOCC3)CCCCC2)cc1OC, which inhibition is on record?
Its inhibition is inactive: -1.08%.

For N/C(=N\O)c1c(N)no[n+]1[O-], which inhibition is on record?
Its inhibition is inactive: -3.02%.

How did the inhibition turn out when CCOC(=O)N1CCC(Nc2ccc(C)cc2)CC1 was run?
The inhibition was inactive: -4.25%.

With CCc1cc(C(=O)NCC2(N3CCCCC3)CCCCC2)sc1C as the compound, how does the inhibition read?
Its inhibition is inactive: -3.3%.

How did the inhibition turn out when O=C(OC1CN2CCC1CC2)C1c2ccccc2C=Cc2ccccc21 (stereo not drawn) was run?
The inhibition was inactive: 5.93%.

For CC(C)(C)OC(=O)N1CCC(N(C(=O)c2ccccc2)c2ccc(Cl)cc2)CC1, which inhibition is on record?
The inhibition was inactive: -0.05%.

For N#Cc1ccc(C(=O)NCC2(N3CCCCC3)CCCCC2)cc1, which inhibition is on record?
The inhibition was inactive: 7.09%.

c1ccc(CN2CCC(Nc3ccccc3)CC2)cc1 was tested. Which inhibition did it give?
The inhibition was inactive: -1.1%.

With CCCN1CCC(Nc2cc(OC)cc(OC)c2)CC1 as the compound, how does the inhibition read?
Its inhibition is inactive: 1.81%.

Which inhibition does the source give for CN(C)C1(CNC(=O)c2cccc(C#N)c2)CCCCC1 here?
Its inhibition is inactive: -8.69%.

How did the inhibition turn out when COc1cc(OC)cc(C(=O)NCC2(N3CCCCC3)CCCCC2)c1 was run?
Its inhibition is inactive: -1.99%.

With Cc1ccc(C(=O)NCC2(N3CCCCC3)CCCCC2)o1 as the compound, how does the inhibition read?
Its inhibition is inactive: 2.71%.

Fc1ccccc1NC1CCN(Cc2ccccc2)CC1 was tested. Which inhibition did it give?
The inhibition was inactive: 5.84%.

Which inhibition does the source give for CCN1CCC(Nc2cccc(F)c2)CC1 here?
The inhibition was inactive: 4.73%.

With O=C(NCC1(N2CCCCC2)CCCCC1)c1ccco1 as the compound, how does the inhibition read?
The inhibition was inactive: -4%.

With CN(C)c1ccc(C(=O)NCC2(N3CCCCC3)CCCCC2)cc1 as the compound, how does the inhibition read?
Its inhibition is inactive: 7.98%.

For CCOc1ncccc1C(=O)NCC1(N2CCOCC2)CCCCC1, which inhibition is on record?
Its inhibition is inactive: 2.77%.

With CN1CCC(Nc2ccc(F)c(Cl)c2)CC1 as the compound, how does the inhibition read?
Its inhibition is inactive: 1.92%.

For CCCOc1ccc(C(=O)NCC2(N(C)C)CCCCC2)cc1, which inhibition is on record?
The inhibition was inactive: 3.27%.

With CC(C)(C)OC(=O)N1CCC(Nc2ccccc2)CC1 as the compound, how does the inhibition read?
The inhibition was inactive: -8.33%.

O=C(O)C1(Nc2ccccc2)CCN(Cc2ccccc2)CC1 was tested. Which inhibition did it give?
The inhibition was inactive: 6.68%.

How did the inhibition turn out when CCC(CO)(C(=O)OC1CN2CCC1CC2)c1ccccc1 (stereo not drawn) was run?
The inhibition was inactive: -0.42%.

With COc1cc(OC)cc(C(=O)NCC2(N3CCOCC3)CCCCC2)c1 as the compound, how does the inhibition read?
Its inhibition is inactive: -1.04%.

With COc1cccc(C(=O)N(c2cc(C)cc(C)c2)C2CCN(C(=O)OC(C)(C)C)CC2)c1 as the compound, how does the inhibition read?
Its inhibition is inactive: -5.35%.

How did the inhibition turn out when CCCOc1ccc(C)cc1CN(CCCl)CCCl was run?
Its inhibition is inactive: -2.97%.

How did the inhibition turn out when CN1CCC(Nc2ccc(Cl)cc2)CC1 was run?
The inhibition was inactive: 9.59%.
